In article PMC9218946, “Identification of a Subtype-Selective Allosteric Inhibitor of GluN1/GluN3 NMDA Receptors” (Frontiers in Pharmacology, 2022) one finds saturated concentration data, which are given here for one compound.

Sequences of proteins named here, by UniProt entry; tags and fusion partners are left off. Residues count along the entry.
UniProt Q9R1M7, 24-1135: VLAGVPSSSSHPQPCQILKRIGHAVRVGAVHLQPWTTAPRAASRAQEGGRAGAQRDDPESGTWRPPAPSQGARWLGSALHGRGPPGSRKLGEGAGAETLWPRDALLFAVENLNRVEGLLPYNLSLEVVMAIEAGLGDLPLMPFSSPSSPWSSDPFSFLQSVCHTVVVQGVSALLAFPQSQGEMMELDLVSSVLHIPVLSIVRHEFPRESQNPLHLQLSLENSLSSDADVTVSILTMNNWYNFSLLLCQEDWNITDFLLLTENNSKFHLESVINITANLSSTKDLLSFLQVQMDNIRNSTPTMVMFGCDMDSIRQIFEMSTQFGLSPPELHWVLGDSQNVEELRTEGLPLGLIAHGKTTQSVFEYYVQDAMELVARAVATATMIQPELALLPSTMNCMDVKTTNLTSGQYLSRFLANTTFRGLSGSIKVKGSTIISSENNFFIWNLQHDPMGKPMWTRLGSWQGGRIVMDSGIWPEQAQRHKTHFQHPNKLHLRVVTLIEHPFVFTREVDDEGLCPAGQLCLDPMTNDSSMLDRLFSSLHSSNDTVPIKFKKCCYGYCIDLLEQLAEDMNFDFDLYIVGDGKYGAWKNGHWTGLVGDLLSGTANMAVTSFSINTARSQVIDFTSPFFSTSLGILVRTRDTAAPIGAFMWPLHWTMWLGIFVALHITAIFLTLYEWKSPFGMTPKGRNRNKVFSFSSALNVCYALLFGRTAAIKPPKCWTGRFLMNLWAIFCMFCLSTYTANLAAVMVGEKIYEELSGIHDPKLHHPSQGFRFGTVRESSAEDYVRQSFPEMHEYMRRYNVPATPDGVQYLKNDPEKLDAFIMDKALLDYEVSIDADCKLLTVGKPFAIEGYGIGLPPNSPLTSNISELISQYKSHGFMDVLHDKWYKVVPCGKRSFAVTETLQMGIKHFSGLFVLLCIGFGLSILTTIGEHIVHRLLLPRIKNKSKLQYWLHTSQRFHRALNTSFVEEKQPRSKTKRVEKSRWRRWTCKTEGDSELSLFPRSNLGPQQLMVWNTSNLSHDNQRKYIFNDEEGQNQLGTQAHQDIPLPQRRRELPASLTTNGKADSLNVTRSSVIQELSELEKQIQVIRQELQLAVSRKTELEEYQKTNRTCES

In this assay the target is GluN1/GluN3A receptors (UniProt Q05586+Q9R1M7). Put plainly: High-throughput Fluo-4 calcium assay (FDSS/μCell) in HEK-293 cells stably expressing GluN1/GluN3A. Format: cell-based, human GluN1-1a, rat GluN3A. Further details: expressed in transfected cells. The following applies: pre-incubation before 100 μM glycine, fluorescence signal. The method, then:
The HEK-293 cells stably expressing GluN1/GluN3A receptors were seeded at a density of 10,000 cells/well in the 384-well plates, and expression was induced with 1 μg/ml doxycycline for 24–28 h. Then the culture medium was removed, Fluo-4 (Invitrogen) was loaded and the cells were incubated in the 37°C incubator away from light for 1 h ([Gee et al., 2000]). The plates were gently washed twice with Ca^2+-free buffer and then incubated with one of the 2560 compounds (from the Chinese National Compound Library) or DMSO (1% and 0.33%) for 20 min. A fixed concentration of 30 μM and dual concentrations of 10 μM and 30 μM were applied in the primary and secondary screening, respectively. Two replicates were set up for each condition. […] A FDSS/μCell platform (Hamamatsu) was used to measure the fluorescence signals. […] The inhibitory effects of tested compounds were compared by the ratios of fluorescence (F) with (F drug) and without (F control) the compounds. The F control value in these assays represented the value of basal Fluo-4 fluorescence plus glycine-stimulated fluorescence, and the F drug indicated the total Fluo-4 fluorescence after treatment of the drugs. […]

Molecules are shown by their SMILES.

Take `C[C@@H](NCc1cc(Br)cc2[nH]c(=O)c(=O)[nH]c12)P(=O)(O)O` [CGP-78608]: the saturated concentration result is listed as “approximately 500 nM”.
